This note sets out measurements from PubChem BioAssay AID1845228.

The conditions of the series: pampa; 60.0 min; 50.0 µM.

What is called Papp is the rate of passage across a membrane or cell layer, normalised by area and donor concentration. A higher Papp goes with fast passage. Consider `CCn1c(=O)n([C@@H]2CCN(CC3CCCCCCC3)C[C@H]2CO)c2ccccc21`, for which the Papp stood at 57 ×10⁻⁶ cm/s.
